# Experimental data published in US20060099220A1, “Antibodies against and methods for producing vaccines for respiratory syncytial virus” (MEDIMMUNE, INC., priority 2004, published 2006).
# Target: Numax™ (Homo sapiens, UniProt P01834+P01857)
# Assay: Biacore kinetic analysis of F peptides on captured Numax™
# Type: binding
# Conditions: F peptide 100 nM over captured Numax™, Biacore 3000
# Description: All studies were performed using Sensor Chip CM5 (Biacore AB, Uppsala, Sweden) which contains a carboxymethyl (CM) dextran matrix and a Biacore® 3000 surface plasmon resonance (SPR) biosensor (Biacore AB, Uppsala, Sweden).
# Numax™ was captured via a high-affinity interaction between the Fc portion of Numax™ and a goat anti-human IgG(Fc) (KPL, Inc., Gaithersburg, Md.). Goat anti-human IgG(Fc) was covalently attached to the CM dextran matrix using amine coupling chemistry. Two anti-human IgG(Fc)-specific surfaces were created. Numax™ was diluted to 10.9 μg/mL with HBS-EP and flowed for 1 min. across one of the anti-human IgG (Fc) surfaces at a flow rate of 5 μL/min. The other anti-human IgG(Fc) surface was used as a reference surface. F peptide was prepared by dilution in HBS-EP (0.01 M Hepes pH 7.4, 0.15 M NaCl, 3 mM EDTA, 0.005% surfactant P20) to a final concentration of 100 nM. F peptide was injected for 1 min. in a serial-flow manner across the reference surface and the Numax™-specific surface. Dissociation of bound F peptide was monitored for 2 min in the presence of HBS-EP. After this dissociation period, Numax™ and F peptide were removed with a 30-sec injection of 10 mM glycine pH 1.7 (Biacore AB, Uppsala, Sweden). Because of the removal of Numax™, it was necessary to create a new Numax™-specific surface prior to the injection of each F peptide.
structure (smiles),measurement,setting,value
CC[C@H](C)[C@H](NC(=O)[C@H](CC(C)C)NC(=O)[C@H](CO)NC(=O)[C@H](CC(C)C)NC(=O)[C@H](CC(C)C)NC(=O)[C@H](CCC(=O)O)NC(=O)[C@H](CO)NC(=O)[C@@H](N)CC(N)=O)C(=O)N[C@@H](CC(N)=O)C(=O)N[C@@H](CC(=O)O)C(=O)N[C@@H](CCSC)C(=O)N1CCC[C@H]1C(=O)N[C@H](C(=O)N[C@H](C(=O)N[C@@H](CC(N)=O)C(=O)N[C@@H](CC(=O)O)C(=O)N[C@@H](CCC(N)=O)C(=O)N[C@@H](CCCCN)C(=O)N[C@@H](CCCCN)C(=O)N[C@@H](CC(C)C)C(=O)N[C@@H](CCSC)C(=O)N[C@@H](CO)C(=O)N[C@@H](CC(N)=O)C(=O)N[C@@H](CC(N)=O)C(=O)N[C@@H](CS)C(N)=O)[C@@H](C)O)[C@@H](C)CC [SEQ ID NO: 27],ka,,2.70E+05
same,kd,,5.50E−03
same,Kd,KD,20.4 nM
